Experimental data taken from paper PMC3828267 (PLoS ONE, 2013).

By UniProt entry, the sequences of proteins in these tests, tags left out. Residues count along the entry.
UniProt P36544, 23-502: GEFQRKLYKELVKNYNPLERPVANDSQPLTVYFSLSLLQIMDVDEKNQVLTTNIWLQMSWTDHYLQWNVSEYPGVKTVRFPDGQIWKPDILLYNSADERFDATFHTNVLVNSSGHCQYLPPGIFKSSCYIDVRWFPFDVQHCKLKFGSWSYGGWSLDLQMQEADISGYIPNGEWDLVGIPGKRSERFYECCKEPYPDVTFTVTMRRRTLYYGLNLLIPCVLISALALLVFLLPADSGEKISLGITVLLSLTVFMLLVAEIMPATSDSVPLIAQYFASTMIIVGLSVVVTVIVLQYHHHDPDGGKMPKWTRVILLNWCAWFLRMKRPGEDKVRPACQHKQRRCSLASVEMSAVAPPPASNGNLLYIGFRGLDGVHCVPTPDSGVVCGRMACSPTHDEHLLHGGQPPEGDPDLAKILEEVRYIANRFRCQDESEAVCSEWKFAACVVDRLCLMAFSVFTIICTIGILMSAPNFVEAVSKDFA

What was measured:
[1] = target: T1, α7 AChRs (Homo sapiens, UniProt P36544); assay: Chronic desensitization (16 h agonist, then ACh response) and calculated smoldering activation, α7 cell line; format: cell-based; parameters: expressed in transfected cells; grown in VPA and PBA
Experimental: To measure desensitization, plates were prepared as for agonist assays. Sixteen hours prior to the assay, serial dilutions of agonists, prepared in regular growth medium, were added to the plates. One hour before the assay, the membrane potential-sensitive fluorescent dye with 0.5 µM atropine was added to the wells. […] Each data point represents the average of peak values for individual dose response curves from 4–8 wells.
Data were graphed using GraphPad Prism software. Non-linear models (sigmoidal dose-response with variable slope or two site competition) were used to fit the concentration response curves. The EC50 and IC50 were calculated from the curves. Kaleidagraph software was used to determine Hill slopes and standard errors of the EC50 and IC50.
Responses for the three different AChRs are shown in Figures 3, 4, 5, 6, along with the dose response curves for activation (the same as shown in Figure 2). The range of concentrations at which both sustained activation and desensitization can occur (“smoldering activation”) was calculated by multiplying the acute response to agonists at each concentration by the fractional response remaining after desensitization.

[2] = target: T1, α7 AChRs; assay: Acute activation, FLEXStation membrane potential dye, α7/RIC-3 cell line; format: cell-based; parameters: expressed in transfected cells; grown in VPA and PBA
Experimental: The parental cell line used for transfections was tsA201, derived from the human embryonic kidney cell line (HEK) 293 [33]. […] The cell line permanently expressing α3β4 AChRs has been described, [34]. A stable cell line expressing functional α7 AChRs was prepared by initially transfecting the tsA201 cell line with cDNA for α7 and subsequently transfecting with cDNA for the AChR-selective chaperone, human RIC-3.
Responses to nicotinic agonists were determined using a FLEXStation microplate fluorometer (Molecular Devices, Sunnyvale, CA) as described. For cell lines expressing α4β2 and α3β4 AChRs, the cells were plated at 10^5 cells/ml (100 µl/well) in black-walled clear-bottom 96 well plates (Costar, Fisher Scientific, Pittsbugh, PA), and incubated for 48 hours prior to assaying responses to various nicotinic agonists. […]
To measure responses to various nicotinic agonists, 100 µl of a fluorescent dye which is sensitive to changes in membrane potential (Molecular Devices) was added to the wells. […] Fluorescent responses were measured in the FLEX Station at 25°C, with an excitation wavelength of 530 nm and an emission wavelength of 565 nm. […]
Data were graphed using GraphPad Prism software. […] The EC50 and IC50 were calculated from the curves. […]

c1cnc2cc3c(cc2n1)[C@@H]1CNC[C@H]3C1 [Varenicline, varenicline]
IC50 [1]: 0.4 ± 0.05 µM | EC50 [2]: 0.4 ± 0.02 µM
